ChEMBL document CHEMBL1146020, “Phosphonothioate and fluoromethylene phosphonate analogues of cyclic phosphatidic acid: Novel antagonists of lysophosphatidic acid receptors” (2006)

Amino acid sequences for entries named in this document (tags omitted). A change or cut given only in a name is not applied to a line headed by its entry.
UniProt Q92633: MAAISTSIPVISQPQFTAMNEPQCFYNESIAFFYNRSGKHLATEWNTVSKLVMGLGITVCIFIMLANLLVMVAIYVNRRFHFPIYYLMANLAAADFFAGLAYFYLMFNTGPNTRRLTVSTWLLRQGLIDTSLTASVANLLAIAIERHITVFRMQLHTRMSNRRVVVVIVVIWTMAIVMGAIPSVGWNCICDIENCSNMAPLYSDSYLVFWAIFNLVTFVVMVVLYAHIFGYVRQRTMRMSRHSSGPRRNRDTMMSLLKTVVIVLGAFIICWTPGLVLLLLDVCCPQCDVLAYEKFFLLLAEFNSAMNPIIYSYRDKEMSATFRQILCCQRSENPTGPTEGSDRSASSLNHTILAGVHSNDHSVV
UniProt Q9HBW0, whole entry, looked up: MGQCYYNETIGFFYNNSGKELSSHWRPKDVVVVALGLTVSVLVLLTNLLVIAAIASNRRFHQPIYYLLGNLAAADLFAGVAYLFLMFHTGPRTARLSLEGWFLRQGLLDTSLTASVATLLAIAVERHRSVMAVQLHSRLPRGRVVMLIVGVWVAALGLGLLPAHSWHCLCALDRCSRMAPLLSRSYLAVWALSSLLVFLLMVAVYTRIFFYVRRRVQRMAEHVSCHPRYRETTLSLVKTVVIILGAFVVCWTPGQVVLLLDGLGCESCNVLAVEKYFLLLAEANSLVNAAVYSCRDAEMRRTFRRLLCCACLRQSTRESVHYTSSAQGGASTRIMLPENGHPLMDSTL

Experiments:
[1] = target: Lysophosphatidic acid receptor 1 (Homo sapiens) (UniProt Q92633); assay: Activity at human LPA1 receptor expressed in RH7777 cells by calcium mobilization assay; details: filed as antagonist
[2] = target: Lysophosphatidic acid receptor 1 (Homo sapiens) (UniProt Q92633); assay: Activity at human LPA1 receptor expressed in RH7777 cells at 30 uM relative to LPA by calcium mobilization assay
[3] = target: Lysophosphatidic acid receptor 2 (Homo sapiens) (UniProt Q9HBW0); assay: Activity at human LPA2 receptor expressed in RH7777 cells at 30 uM relative to LPA by calcium mobilization assay
[4] = target: T1, Lysophosphatidic acid receptor 3 (Homo sapiens) (UniProt Q9UBY5); assay: Activity at human LPA3 receptor expressed in RH7777 cells at 30 uM relative to LPA by calcium mobilization assay
T1 sequence (whole entry): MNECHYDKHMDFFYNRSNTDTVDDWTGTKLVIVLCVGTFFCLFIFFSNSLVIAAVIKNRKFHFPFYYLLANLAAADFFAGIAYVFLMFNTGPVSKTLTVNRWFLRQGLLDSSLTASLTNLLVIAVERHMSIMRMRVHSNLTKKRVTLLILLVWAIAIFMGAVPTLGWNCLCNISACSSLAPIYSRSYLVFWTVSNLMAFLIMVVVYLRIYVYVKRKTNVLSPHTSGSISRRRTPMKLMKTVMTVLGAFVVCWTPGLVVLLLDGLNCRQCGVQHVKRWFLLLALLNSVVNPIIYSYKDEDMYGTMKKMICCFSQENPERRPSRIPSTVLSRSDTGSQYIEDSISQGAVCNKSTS

Structure (SMILES)	Activity [1]	inhibition [2]	Emax [2]	Emax [3]	Emax [4]
CCCCCCCCCCCCCCCCCC(=O)OC[C@@H]1CC(F)P(=O)(O)O1 (some centres not stated)	Partial antagonist	46%	–	–	–
CCCCCCCCCCCCCCCCCC(=O)OCC1CCP(O)(=S)O1 (configuration not stated)	Partial antagonist	64%	–	–	–
CCCCCCCCCCCCCCCCCC(=O)OC[C@@H]1CC(F)(F)P(=O)(O)O1	–	–	13%	82%	65.4%
